{"source": "paper PMC5963757", "about": "“Expression, purification, and inhibition profile of dihydrofolate reductase from the filarial nematode Wuchereria bancrofti” (PLoS ONE, 2018)", "key": {"WbDHFR [1]": {"target": "T1, WbDHFR (Wuchereria bancrofti, UniProt J9F199)", "description": "To determine the mechanism of inhibition, Dixon plots were created and analyzed for the inhibitors against WbDHFR. We determined WbDHFR activity as described above at DHF concentrations of 2 μM, 4 μM, and 8 μM in 200 μL reaction volumes. WbDHFR (6 nM) and 100 μM NADPH cofactor were included in 1 X MTEN buffer at pH 6.0. […] The reciprocal initial velocities were plotted against inhibitor concentration for each substrate in Excel to create the Dixon plots. Substrate trend-lines were extended to calculate the intersection point,–KI. Each Dixon plot was generated in triplicate.\nA linear equation was fitted to the data at each substrate concentration. […] The KI values for BmDHFR in Table 1 were obtained using the Cheng-Prusoff Equation [18]. […] Inhibitor structures are shown in supporting information (S2 Fig)."}, "WbDHFR [2]": {"target": "T1, WbDHFR", "format": "biochemical", "description": "Compounds (-)-epicatechin, (-)-epicatechin gallate, and vitexin were tested as inhibitors of WbDHFR and BmDHFR. The compounds (-)-epicatechin and (-)-epicatechin gallate were synthesized as described previously. […] Disappearance of DHF and NADPH was observed by measuring absorbance at 340 nm to measure the DHFR activity in a SpectraMax M3 microplate reader. […] All experiments were completed in triplicate."}}, "note": "Where two headings read alike, the source gives them in different places.", "data": [{"smiles": "CN(Cc1cnc2nc(N)nc(N)c2n1)c1ccc(C(=O)N[C@@H](CCC(=O)O)C(=O)O)cc1", "note": "[Methotrexate, methotrexate]", "values": [{"measurement": "Ki", "setting": "WbDHFR [1]; read-out: Average KI, WbDHFR, average of three trials, Dixon plots", "result": 0.68, "unit": "nM"}, {"measurement": "Ki", "setting": "WbDHFR [1]; read-out: KI Trial 1, WbDHFR, individual trial, Dixon plot", "result": 0.809, "unit": "nM"}, {"measurement": "Ki", "setting": "WbDHFR [1]; read-out: KI Trial 2, WbDHFR, individual trial, Dixon plot", "result": 0.69, "unit": "nM"}, {"measurement": "Ki", "setting": "WbDHFR [1]; read-out: KI Trial 3, WbDHFR, individual trial, Dixon plot", "result": 0.555, "unit": "nM"}, {"measurement": "Ki", "setting": "WbDHFR [1]; read-out: KI WbDHFR, from Dixon plots, 6 nM WbDHFR, 100 μM NADPH, DHF 2, 4, 8 μM, pH 6.0, ± S.D.", "result": "0.7 ± 0.1", "unit": "nM"}, {"measurement": "IC50", "setting": "WbDHFR [2]; read-out: IC50 WbDHFR, pH 6.0, 100 μM NADPH, 50 μM DHF, 12.1 nM WbDHFR, average of triplicates ± S.D.", "result": "18 ± 3", "unit": "nM"}, {"measurement": "IC50", "setting": "WbDHFR [2]; read-out: IC50 against WbDHFR Average, average of three trials", "result": 17.6, "unit": "nM"}, {"measurement": "IC50", "setting": "WbDHFR [2]; read-out: IC50 against WbDHFR Trial 1, individual trial", "result": 15.1, "unit": "nM"}, {"measurement": "IC50", "setting": "WbDHFR [2]; read-out: IC50 against WbDHFR Trial 2, individual trial", "result": 20.1, "unit": "nM"}, {"measurement": "IC50", "setting": "WbDHFR [2]; read-out: IC50 against WbDHFR Trial 3, individual trial", "result": 17.5, "unit": "nM"}]}]}
